# Test results: ChEMBL document CHEMBL1132373, “Synthesis, opioid receptor binding, and biological activities of naltrexone-derived pyrido- and pyrimidomorphinans” (J Med Chem, 1999)
# Amino acid sequences for entries named in this document (tags omitted).
# UniProt P32300, whole entry: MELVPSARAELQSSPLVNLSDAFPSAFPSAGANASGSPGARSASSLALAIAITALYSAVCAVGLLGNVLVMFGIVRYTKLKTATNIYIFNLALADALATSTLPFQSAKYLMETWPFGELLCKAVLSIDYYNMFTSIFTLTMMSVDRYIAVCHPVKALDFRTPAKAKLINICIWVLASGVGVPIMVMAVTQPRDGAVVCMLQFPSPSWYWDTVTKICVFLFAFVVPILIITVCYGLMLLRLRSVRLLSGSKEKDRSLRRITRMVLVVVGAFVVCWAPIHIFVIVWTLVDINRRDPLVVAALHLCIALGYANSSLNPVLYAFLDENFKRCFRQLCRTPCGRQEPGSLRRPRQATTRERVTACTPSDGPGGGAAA
# Target: Delta-type opioid receptor (Mus musculus) (UniProt P32300)
# Assay: Antagonist potency measured as Ke = [antagonist]/(IC50 ratio-1) against delta opioid receptor from mouse vas deferens (MVD) using DPDPE
# Format: functional
# Outline: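 Vas deferens from male ICR mice (25-40 g) in 37 °C oxygenated magnesium-free Krebs, 0.5 g tension, field-stimulated 0.1 Hz, 2-ms pulses. Compound 1 µM for 30 min, washout 30 min, cumulative DPDPE curve repeated. Ke = [antagonist]/(IC50 ratio - 1); IC50 from 2-4 tissues, n ≥ 3, nonlinear least squares.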
smiles,measurement,value
Oc1ccc2c3c1O[C@H]1c4ncc(-c5ccc(Cl)cc5)cc4C[C@@]4(O)[C@@H](C2)N(CC2CC2)CC[C@]314,Ke,0.66 nM
